## scFv variants of Ab-14 (light chain) against a SARS-CoV-2 spike peptide

Target: peptide PDVDLGDISGINAS, taken from heptad repeat 2 (HR2) of SARS-CoV-2 spike.

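Phage display of a naive human antibody library on the peptide gave the parent. In library AAYL50, one, two or three CDR residues were substituted; doubles and triples were drawn at random. The scFvs were displayed on barcoded MATa yeast, the peptide on MATalpha yeast. After mating in shaken culture at 30 °C for 16 h, diploids were selected and their barcode pairs sequenced. Read counts were normalised to the haploid input and turned into Kd by a linear fit to BCL2-family pairs of known affinity, for each replicate. Mating was done three times.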

Parent scFv Ab-14: VH joined to VL by a (GGGGS)3 linker. Changes lie in the light chain CDRs alone.
VH: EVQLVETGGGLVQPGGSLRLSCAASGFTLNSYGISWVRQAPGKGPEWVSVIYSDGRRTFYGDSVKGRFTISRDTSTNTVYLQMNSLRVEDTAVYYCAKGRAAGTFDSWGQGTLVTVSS
VL: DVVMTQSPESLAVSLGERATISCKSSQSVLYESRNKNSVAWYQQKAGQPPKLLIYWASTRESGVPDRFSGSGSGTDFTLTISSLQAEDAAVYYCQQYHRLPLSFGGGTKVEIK

Each variant is given by its three light chain CDRs, as the data file delimits them; those of the parent are KSSQSVLYESRNKNSVA, WASTRES, QQYHRLPLS.
Every variant below is changed at K36 of the VL (sequential numbering).
Kd is apparent (estimated from mating counts) and averaged on the log scale over replicates with a signal. Smaller is tighter.
"no signal" means that the variant was in the library but no mating with the target was seen in any replicate; the authors take this as a sign of poor binding, and no number exists.
As a blank, each scFv also met three strains without target: over library AAYL50, 18% of these pairings were detected, typically at 15 µM and seldom below 970 nM.

With KSSQSVLYESRNYNSVA | WASTRES | QQYSRLPLS the result was 6.0 nM (3 of 3 replicates). With KSSQSVLYESRNWNSVA | WASPRES | QQYHRLWLS the result was 4.0 µM (1 of 3 replicates). The variant KSSQSVLYESRNANSVA | WASTHES | HQYHRLPLS showed 3.7 µM (2 of 3 replicates). The variant KSSQSRLYESRNMNSGA | WASTRES | QQYHRLPLS gave no signal (0 of 3 replicates). For KSSQIVLYESRNFNSVA | WASTRES | QQYHRLPLS, the assay gave 2.7 µM (3 of 3 replicates).

For KSSVSVLYESRNNCSVA | WASTRES | QQYHRLPLS, the assay gave 120 nM (3 of 3 replicates). With KASQSVLYESRNTNSVA | WARTRES | QQYHRLPLS the result was 23 nM (3 of 3 replicates). For KSSQSVLYESRNENSAA | WASTRES | QQYHRQPLS, the assay gave no signal (0 of 3 replicates). With KSSQSQLYESRNRNSVS | WASTRES | QQYHRLPLS the result was 3.2 µM (2 of 3 replicates). The variant KSSQSVLHESRNENSVA | WASTRES | QQYCRLPLS gave 12 nM (3 of 3 replicates).

The variant KSSQSVLYESRNTNSVA | WASTRES | QQYARLPLS gave 3.8 nM (3 of 3 replicates). For KSSQSVLYESRNTNSVA | WASRRES | QQYHRLPVS, the assay gave 34 nM (3 of 3 replicates). For KSSQSVLYESRNMNSVA | WASTRES | QQYHRLLLY, the assay gave 6.5 nM (3 of 3 replicates). The variant KSSQSVLYESRNTNSVW | WASTRES | QQYMRLPLS gave no signal (0 of 3 replicates). The variant KSSQSVLYESFNSNSVA | WASTRES | QQYHRLPLL gave 200 nM (3 of 3 replicates).

With KSSQSVLYESRRGNSVA | WASTIES | QQYHRLPLS the result was 9.0 µM (1 of 3 replicates). For KSSQSVLYESRNRNSVA | KASTRES | QQYHRLPLS, the assay gave 14 nM (3 of 3 replicates). With KTSQSVWYESRNINSVA | WASTRES | QQYHRLPLS the result was 5.2 nM (3 of 3 replicates). The variant KSSQSVLYESFNYNSVA | WDSTRES | QQYHRLPLS gave 6.4 µM (1 of 3 replicates). The variant KSSQSVLYESRNDNSVA | WASTQES | QQYHRMPLS gave 2.5 µM (3 of 3 replicates).

The variant KSSFSVLYESRNANSVA | WASTRES | QSYHRLPLS gave no signal (0 of 3 replicates). With KSSQSVLYENRMNNSVA | WASTRES | QQYHRLPLS the result was 16 nM (3 of 3 replicates). The variant KSSQSVLYESMNVNSVL | WASTRES | QQYHRLPLS gave 11 µM (2 of 3 replicates). The variant KSSQWVLYESRNNNSVA | WASTRES | QQYHRLPAS showed 110 nM (3 of 3 replicates). With KSSQSVLYESRNWNSVA | EASTRES | QVYHRLPLS the result was 33 nM (3 of 3 replicates).

With KSSQSVLYESRNFQSVA | WASTRES | QQYHRLPLS the result was 14 nM (3 of 3 replicates). With KSSQSVLYESRNCNSVA | WASNRES | QDYHRLPLS the result was 25 nM (3 of 3 replicates). With KSMQSVLYESRNFNSVA | WASTRES | QQYHRLPLS the result was 43 nM (3 of 3 replicates). The variant KSSTSVLYESRNFNSVA | WASTRES | NQYHRLPLS showed 6.5 nM (3 of 3 replicates). The variant KSSQSVLYESRNDNSVA | IASTRES | QQYHRLPLS showed 160 µM (3 of 3 replicates).

The variant KSSQSLLYEHRNWNSVA | WASTRES | QQYHRLPLS gave 6.1 µM (3 of 3 replicates). The variant KRSQSVLVESRNENSVA | WASTRES | QQYHRLPLS gave 32 nM (3 of 3 replicates). With KSSQKVLYESRNYNSVA | WASTRES | QQYHRLPLS the result was no signal (0 of 3 replicates). The variant KSSQPVLYESRNCNSVA | WASTRER | QQYHRLPLS gave 4.8 nM (3 of 3 replicates). The variant KSSQSVLYESRPYNSVA | WAVTRES | QQYHRLPLS showed 2.0 µM (3 of 3 replicates).

The variant KSSKSVLYESRNMPSVA | WASTRES | QQYHRLPLS showed 20 nM (3 of 3 replicates). The variant KLSQSVLYLSRNYNSVA | WASTRES | QQYHRLPLS showed no signal (0 of 3 replicates). The variant KSSQSPLYESRNCESVA | WASTRES | QQYHRLPLS gave no signal (0 of 3 replicates). For KSSQSVWYESRNMNSVA | WASTRES | QQYTRLPLS, the assay gave 26 µM (2 of 3 replicates). The variant KSSQSVLYESRNMNSVA | WASTWEN | QQYHRLPLS gave 23 µM (1 of 3 replicates).

The variant KSSQCVLYEHRNSNSVA | WASTRES | QQYHRLPLS gave 480 nM (3 of 3 replicates). For KSSQSVLYESRNTNSPA | WASTRES | QQYHRLPLS, the assay gave 49 µM (2 of 3 replicates). The variant DSSQSVLYESRNRNSVA | WASTRES | KQYHRLPLS gave 27 µM (1 of 3 replicates). For KSSQSELYESRNDNSVA | WASTIES | QQYHRLPLS, the assay gave 180 µM (2 of 3 replicates). The variant KSSQSVLYESYNENSVA | WASTRES | QSYHRLPLS showed 28 nM (3 of 3 replicates).

The variant KSSQSWLYESRFWNSVA | WASTRES | QQYHRLPLS gave 180 nM (1 of 3 replicates). With KSSQSVLYESRNYNSVA | WASTRES | QQYHWLPLS the result was 92 nM (3 of 3 replicates). With LSSQSVLYESRNPNSVA | WASTRES | QQYLRLPLS the result was 720 nM (1 of 3 replicates). For KSSQSVLYESRNYNSVA | WASTRES | QCYHRLPLS, the assay gave 8.6 nM (3 of 3 replicates). The variant KSSQSVLYESRNENSVA | WASTREQ | QQYHRLCLS showed 570 nM (3 of 3 replicates).

For reference, the parent read 4.4 nM as the reference entry and 48 nM as a member of this library.

Source: Engelhart et al. 2022 (doi:10.1038/s41597-022-01779-4), MIT Lincoln Laboratory and A-Alpha Bio; data file from the FLAb repository.